Reference: patent publication EP4825843A1, “IMIDAZOLE LIPID AND USE THEREOF” (dated 2026)

Assays:
[1] = Size and polydispersity index of lipid nanoparticles by dynamic light scattering (Malvern Zetasizer Pro); details: lipid nanoparticle composition (lipid:DSPC:cholesterol:DMG-PEG 50:10:38.5:1.5) encapsulating luciferase mRNA
Procedure: (§1) Compounds 1, 2, and 3 and comparative compounds 1, 2, and 3 were each dissolved in an ethanol solution, and each of the resulting solutions was mixed with solutions of DSPC, cholesterol, and DMG-PEG in ethanol in a molar percent (mol %) ratio of 50:10:38.5:1.5 to prepare an ethanol lipid solution. mRNA (luciferase, GenBank: MN728548.1) was dissolved in a 50 mM acetic acid buffer (pH 5) to prepare an aqueous mRNA solution (0.2 mg/mL). Each of the ethanol lipid solutions was mixed with the aqueous mRNA solution by microfluidics, with the volume ratio of the ethanol phase to the aqueous phase being 1:3 and the weight ratio of total lipids to mRNA being about 20:1, to prepare liposomes. Ethanol was removed by dialysis against a 20 mM Tris solution (pH 7.5). Finally, each solution was exchanged into a 20 mM Tris, 8% sucrose solution, and the resulting solutions were cryopreserved to obtain lipid nanoparticle compositions in which mRNA was encapsulated.
The size and polydispersity index (PDI) of the lipid nanoparticles were determined using a Malvern Zetasizer Pro in a 173° backscatter detection mode and dynamic light scattering.

[2] = Liposome encapsulation efficiency, Quant-iT RiboGreen RNA assay kit; details: lipid nanoparticle composition encapsulating luciferase mRNA
Procedure: as §1
The liposome encapsulation efficiency was determined using a Quant-iT RiboGreen RNA assay kit.

[3] = system: A549 cells (human non-small cell lung cancer cells); assay: Non-immune cell in vitro transfection efficiency (luciferase mRNA LNP, fluorescence intensity); details: for Mean fluorescence intensity (p/s): LNP composition with luciferase mRNA, 24 h of incubation; for Relative fluorescence intensity: comparative compound 2 taken as a unit 1
Procedure: (§2) Non-immune cells such as A549 cells (human non-small cell lung cancer cells) and immune cells such as Jurkat cells (human T cells) (from ATCC) were cultured in 96-well plates, respectively. The lipid nanoparticle compositions in which the luciferase mRNA (luciferase, GenBank: MN728548.1) was encapsulated were added to the cell well plates. After 24 h of incubation, the luciferase substrate (D-luciferin potassium salt, Cat. No. abs42075819) was added, and the fluorescence intensity was measured using a microplate reader. The fluorescence intensity indicates the level of luciferase protein expression, i.e., the delivery efficiency of the lipid nanoparticles corresponding to the compounds on different cells.

[4] = system: Jurkat cells (human T cells); assay: Immune cell in vitro transfection efficiency (luciferase mRNA LNP, fluorescence intensity); details: for Mean fluorescence intensity (p/s) / Relative fluorescence intensity: immune cells (Jurkat); for Mean fluorescence intensity (p/s): LNP composition with luciferase mRNA, 24 h of incubation; for Relative fluorescence intensity: comparative compound 2 taken as a unit 1; for Fluorescence intensity relative to that of the lipid nanoparticle composition corresponding to comparative compound 2: immune cells
Procedure: as §2

Dendritic cells = assay: In vivo Cre mRNA delivery efficiency in immune cells after tail vein injection, flow cytometry of spleen cells; details: Cre mRNA LNP, tail vein injection 0.5 mg/kg, 48 h after administration, tdTomato positive
Procedure: (§3) Lipid nanoparticle compositions in which a Cre-expressing recombinant mRNA (GenBank: JQ033384.1) was encapsulated (prepared according to the preparation method in Example 5) were administered to male CAG-LSL-tdTomato model mice aged 6-8 weeks (Shanghai Model Organisms Center, Inc.) by tail vein injection at a dose of 0.5 mg/kg. If the Cre mRNA was delivered into cells in the mice, it would edit the genes of the mice to enable the expression of the tdTomato fluorescent protein. Therefore, the in vivo delivery efficiency of the lipid nanoparticle compositions in different cells can be determined by detecting fluorescence signals of the tdTomato protein and analyzing the proportion of positive cells. Forty-eight hours after administration, the mice were dissected, and their spleens were collected and ground. After lysis of red blood cells, single-cell suspensions were prepared, with cells resuspended in a PBS buffer (pH 7.4). Different immune cells were labeled with fluorescently labeled antibodies (BioLegend), respectively. The cells were divided into populations using a flow cytometer, and the proportion of positive cells (with tdTomato fluorescence signals) in a corresponding cell population was determined, reflecting the delivery efficiency of the nanoparticle lipid compositions in the corresponding immune cells. The blank control group was injected with an equal volume of PBS.
(§4) For the lipid nanoparticle composition corresponding to each compound, at least 3 biological replicates were set, and the mean percentage was calculated. 5 to 9.
(§5) With the lipid nanoparticle composition corresponding to comparative compound 1 and the blank control group as controls, the in vivo mRNA delivery efficiency of the tail vein injection of the lipid nanoparticle composition corresponding to compound 1 into mice in immune cells was determined. Table 4. In vivo delivery efficiency in immune cells

Macrophages = assay: as above; details: Cre mRNA LNP, tail vein injection 0.5 mg/kg, 48 h after administration, tdTomato positive
Procedure: as §3, §4, §5

Monocytes = assay: as above; details: Cre mRNA LNP, tail vein injection 0.5 mg/kg, 48 h after administration, tdTomato positive
Procedure: as §3, §4, §5

NK cells = assay: as above; details: Cre mRNA LNP, tail vein injection 0.5 mg/kg, 48 h after administration, tdTomato positive
Procedure: as §3, §4, §5

T cells = assay: as above; details: Cre mRNA LNP, tail vein injection 0.5 mg/kg, 48 h after administration, tdTomato positive
Procedure: as §3, §4, §5

Liver = assay: Expression level of luciferase mRNA delivered by tail vein injection in tissues, IVIS imaging; details: luciferase mRNA LNP, tail vein injection 0.5 mg/kg, 6 h after administration; comparative compound 1 taken as a unit 1
Procedure: (§6) Lipid nanoparticle compositions in which a luciferase-expressing mRNA (luciferase, GenBank: MN728548.1) was encapsulated (prepared according to the preparation method in Example 5) were administered to female Balb/c mice aged 6-8 weeks by tail vein injection at a dose of 0.5 mg/kg. Six hours after administration, the luciferase substrate (D-luciferin potassium salt, Cat. No. abs42075819) was injected intraperitoneally into each mouse. The mice were dissected, their livers and spleens were collected and photographed using an IVIS small-animal optical in vivo imaging system (PerkinElmer), and the fluorescence intensity of each tissue was measured. For the lipid nanoparticle composition corresponding to each compound, at least 3 biological replicates were set, and the mean fluorescence intensity was calculated. The fluorescence intensity indicates the level of luciferase protein expression. The relative fluorescence intensities, i.e., relative protein expression levels, of compounds 1, 2, and 3 and comparative compounds 1 and 3 were calculated with the fluorescence intensity of the lipid nanoparticle composition corresponding to comparative compound 1 taken as a unit 1. For example, the ratio of the tissue fluorescence intensity of compound 1 to the tissue fluorescence intensity of comparative compound 1 is the relative protein expression level of compound 1.
(§7) 10 and 11, the relative protein expression levels were calculated using the measured fluorescence intensities corresponding to the spleens and livers of the mice that were photographed using an IVIS small-animal optical in vivo imaging system. They measured how efficiently the lipid nanoparticle compositions delivered mRNA in cells of different tissues. In FIGs. […]

Spleen = assay: as above; details: luciferase mRNA LNP, tail vein injection 0.5 mg/kg, 6 h after administration; comparative compound 1 taken as a unit 1
Procedure: as §6, §7

PDI [1]	Size (nm) [1]	Encapsulation efficiency (%) [2]	SMILES	Mean fluorescence intensity (p/s) [3]	Relative fluorescence intensity [3]	Mean fluorescence intensity (p/s) [4]	Relative fluorescence intensity [4]	Proportion of positive cells (%) (Dendritic cells)	Proportion of positive cells (%) (Macrophages)	Proportion of positive cells (%) (Monocytes)	Proportion of positive cells (%) (NK cells)	Proportion of positive cells (%) (T cells)	Relative protein expression level Liver (Liver)	Relative protein expression level Spleen (Spleen)	Fluorescence intensity relative to that of the lipid nanoparticle composition corresponding to comparative compound 2 [4]
0.19	69.7 nm	97.4%	CCCCCCCCC(CCCCCC)C(=O)OCCCCCCN(CCCCCCOC(=O)C(CCCCCC)CCCCCCCC)CCCn1ccnc1 (stereo not drawn)	3.00E+04 p/s	1.46	8.55E+03 p/s	3.07	4.2%	5.9%	12.3%	5.0%	1.6%	1.0	1.0	–
0.10	78.1 nm	99.4%	CCCCCCCCC(CC)OC(=O)CCCCCCCN(CCCCCOCC(=O)OC(CCCCCCCC)CCCCCCCC)CCCn1ccnc1 (stereo not drawn)	3.02E+04 p/s	1.46	3.72E+04 p/s	13.38	–	–	–	–	–	1.4	2.0	13 times
0.07	79.4 nm	95.5%	CCCCCCCCC(CCCCCC)C(=O)OCCCCCCN(CCCOCCOC(=O)C(CCCCCC)CCCCCCCC)CCCn1ccnc1 (stereo not drawn)	2.06E+04 p/s	1.00	2.59E+04 p/s	9.33	7.7%	10.2%	16.8%	14.1%	2.5%	0.6	1.7	9 times
